US7396817B2, “Biologically active peptides comprising Isoleucyl-valyl-threonyl-asparaginyl-threonyl-threonine (IVTNTT)” (CMS Peptides Patent Holding Company Limited, priority 2003, dated 2008)

Test system: hepG 2 2.2.15 cell line
Assay: Cytotoxicity (cell survival, TC50) in the HBV-DNA experiment
Details: 2.2.15 cells, day 8; concentration at which cell survival is 50% of control
Protocol: Cell suspensions were prepared and incubated as described in Method 1 above. […] The culture media, with added test substance, were exchanged on days 3 and 6. On the 8th day, the supernatants of the cell cultures were harvested for the determination of HBV-DNA concentrations by fluorescent quantitative PCR^[3,4], using the method described by the kit supplier. The cultured cells were taken for analysis of the cytotoxicity of each test substance. The inhibitory percentage of the drug was calculated in the following manner: Inhibitory percentage (%)=(blank control−sample)/blank control×100 Cell survival percentage (%)=sample (A595−A650)/blank control (A595−A650)×100
TC50 was defined as the test substance concentration at which the percentage of surviving cells in the test group is 50% of that of the control group. IC50 was the test substance concentration at which the percentage of reduction of HBV-DNA concentration is 50% compared to control. These were determined by plotting the corresponding percentage against the test substance concentrations. The selection index (SI) was calculated as TC50/IC50. The bigger the value of SI, the higher the inhibition activity of test substance is and the less cytotoxic it is.

vidarabine monophosphate [Ara-AMP, reference compound]
TC50: 64.2 µg/mL
